Values quoted from earlier work in patent US20100203024A1 (priority 2006, published 2010).

Test system: EGFR-positive colorectal cancer

## cetuximab
Cetuximab alone
  activity: minimal activity
Combined with irinotecan
  response rate: 22%
